Molecular target: Proteinase K (Parengyodontium album, UniProt P06873)
Test: In vitro proteinase K inhibition assay
Type: biochemical, Tritirachium album Limber

Chains of the proteins cited; added tags and fusions are not shown. Residues count along the entry.
UniProt P06873, 106-384: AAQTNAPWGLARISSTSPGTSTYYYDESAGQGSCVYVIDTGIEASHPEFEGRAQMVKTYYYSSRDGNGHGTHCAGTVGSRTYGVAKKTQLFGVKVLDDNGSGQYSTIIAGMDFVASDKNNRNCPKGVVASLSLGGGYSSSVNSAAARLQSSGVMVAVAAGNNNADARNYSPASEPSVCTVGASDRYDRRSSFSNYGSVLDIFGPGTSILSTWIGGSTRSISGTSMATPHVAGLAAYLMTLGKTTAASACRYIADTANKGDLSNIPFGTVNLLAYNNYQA

With O=S(=O)(F)Cc1ccccc1 [Phenylmethyl sulfonyl fluoride, reference compound] the IC50 was 120 ± 14 nM.
